Data as given in paper PMC8532158.

Tests used:
Test in all cases: yeast surface display affinity sorting with deep sequencing, enrichments normalized to ddG of purified proteins
[1] = biological target: bovine alpha-chymotrypsin (Bos taurus) (UniProt P00766)
[2] = biological target: human mesotrypsin (Homo sapiens) (UniProt P35030)
[3] = biological target: bovine trypsin (Bos taurus) (UniProt P00760)

Substance | ddG [1] [kcal/mol] | ddG [2] [kcal/mol] | ddG [3] [kcal/mol]
R39A (from UniProt P00974) | 0.507 | 0.663 | 2.45
R39C (from UniProt P00974) | 0.962 | 0.872 | 6.25
R39D (from UniProt P00974) | 2.52 | 1.89 | 5.43
R39E (from UniProt P00974) | 2.96 | 1.79 | 6.12
R39F (from UniProt P00974) | 0.16 | -0.392 | 2.67
R39G (from UniProt P00974) | 0.361 | 0.681 | 2.29
R39H (from UniProt P00974) | -0.917 | -1.06 | 2.88
R39I (from UniProt P00974) | -0.713 | -0.161 | 3.87
R39K (from UniProt P00974) | 0.317 | -0.246 | 3.47
R39L (from UniProt P00974) | -0.502 | -0.417 | 3.57
R39M (from UniProt P00974) | 0.153 | -0.321 | 3.61
R39N (from UniProt P00974) | 0.645 | 1.08 | 4.06
R39P (from UniProt P00974) | 1.27 | 1.82 | 3.87
R39Q (from UniProt P00974) | 0.134 | -0.241 | 3.62
R39S (from UniProt P00974) | 0.547 | 0.85 | 3.5
R39T (from UniProt P00974) | 0.466 | 0.309 | 3.93
R39V (from UniProt P00974) | -0.058 | -0.193 | 3.68
R39W (from UniProt P00974) | -0.991 | -0.648 | 2.9
R39Y (from UniProt P00974) | 0.338 | -0.302 | 3.31
T11A (from UniProt P00974) | -0.433 | 1.12 | 2.03
T11C (from UniProt P00974) | 0.742 | -0.0576 | 3.48
T11D (from UniProt P00974) | 0.695 | 0.603 | 3.52
T11E (from UniProt P00974) | 0.643 | 1.74 | 2.48
T11F (from UniProt P00974) | 0.571 | 1.01 | 2.38
T11G (from UniProt P00974) | -0.459 | 0.213 | 1.39
T11H (from UniProt P00974) | 1.5 | 1.83 | 4.27

Substance | ddG [1] [kcal/mol] | ddG [2] [kcal/mol] | ddG [3] [kcal/mol]
T11I (from UniProt P00974) | 0.227 | -0.171 | 1.92
T11K (from UniProt P00974) | 0.964 | 0.752 | 3.71
T11L (from UniProt P00974) | 0.446 | -0.321 | 2.44
T11M (from UniProt P00974) | 0.68 | -0.258 | 2.66
T11N (from UniProt P00974) | -1.66 | 0.953 | 2.58
T11P (from UniProt P00974) | 0.555 | 1.07 | 3.78
T11Q (from UniProt P00974) | 0.378 | 0.137 | 3.76
T11R (from UniProt P00974) | 0.63 | 1.09 | 2.35
T11S (from UniProt P00974) | -0.564 | 1.04 | 2.96
T11V (from UniProt P00974) | -0.442 | -0.254 | 2.44
T11W (from UniProt P00974) | -0.162 | 1.05 | 1.67
T11Y (from UniProt P00974) | 0.578 | 1.58 | 2.91
V34A (from UniProt P00974) | -0.00599 | -0.225 | 2.24
V34C (from UniProt P00974) | 0.38 | -0.371 | 4.2
V34D (from UniProt P00974) | 0.34 | -1.88 | 2.72
V34E (from UniProt P00974) | 0.475 | -0.216 | 3.16
V34F (from UniProt P00974) | -1.15 | 0.272 | 2.2
V34G (from UniProt P00974) | -0.0891 | -1.45 | 1.59
V34H (from UniProt P00974) | -0.975 | 0.433 | 1.62
V34I (from UniProt P00974) | -1.11 | -0.177 | 2.21
V34K (from UniProt P00974) | 0.197 | 1.82 | 3.44
V34L (from UniProt P00974) | -0.576 | 1.15 | 3.26
V34M (from UniProt P00974) | -0.476 | 0.942 | 2.94
V34N (from UniProt P00974) | 0.00546 | -0.148 | 1.97
V34P (from UniProt P00974) | 0.24 | -0.316 | 2.1
V34Q (from UniProt P00974) | 0.443 | 1.02 | 3.08

Substance | ddG [1] [kcal/mol] | ddG [2] [kcal/mol] | ddG [3] [kcal/mol]
V34R (from UniProt P00974) | 0.187 | 1.31 | 3.16
V34S (from UniProt P00974) | 0.0912 | -1.37 | 2.41
V34T (from UniProt P00974) | -0.433 | -1.06 | 2.72
V34W (from UniProt P00974) | -0.713 | 0.719 | 2.39
V34Y (from UniProt P00974) | -1.25 | 0.199 | 2.17
Y35A (from UniProt P00974) | 0.553 | 1.8 | 3.56
Y35C (from UniProt P00974) | 2.82 | 1.91 | 8.29
Y35D (from UniProt P00974) | 2.69 | 1.49 | 4.92
Y35E (from UniProt P00974) | 3.78 | 2.27 | 5.62
Y35F (from UniProt P00974) | -0.43 | -0.277 | 0.809
Y35G (from UniProt P00974) | 5.16 | 2.1 | 3.38
Y35H (from UniProt P00974) | 0.0159 | -0.258 | 2.39
Y35I (from UniProt P00974) | 3.74 | 1.67 | 6.05
Y35K (from UniProt P00974) | 5.08 | 1.71 | 7.81
Y35L (from UniProt P00974) | 1.65 | 2.03 | 5.1
Y35M (from UniProt P00974) | 0.301 | 0.926 | 2.52
Y35N (from UniProt P00974) | 1.56 | 1.74 | 3.43
Y35P (from UniProt P00974) | 3.82 | 1.68 | 7.23
Y35Q (from UniProt P00974) | 0.35 | 0.515 | 2.57
Y35R (from UniProt P00974) | 4.64 | 1.83 | 6.59
Y35S (from UniProt P00974) | 0.56 | 1.88 | 2.49
Y35T (from UniProt P00974) | 2.35 | 2.4 | 4.2
Y35V (from UniProt P00974) | 2.27 | 2.44 | 5.35
Y35W (from UniProt P00974) | -0.195 | -0.186 | 1.79
